Measurements published in patent US20260384442A1, “MACROCYCLIC COMPOUND AS CDK9 INHIBITOR AND USE THEREOF” (published 2026).

Protein sequences, listed by entry. Tags and fused reporters are not part of them.
UniProt P06493, whole entry: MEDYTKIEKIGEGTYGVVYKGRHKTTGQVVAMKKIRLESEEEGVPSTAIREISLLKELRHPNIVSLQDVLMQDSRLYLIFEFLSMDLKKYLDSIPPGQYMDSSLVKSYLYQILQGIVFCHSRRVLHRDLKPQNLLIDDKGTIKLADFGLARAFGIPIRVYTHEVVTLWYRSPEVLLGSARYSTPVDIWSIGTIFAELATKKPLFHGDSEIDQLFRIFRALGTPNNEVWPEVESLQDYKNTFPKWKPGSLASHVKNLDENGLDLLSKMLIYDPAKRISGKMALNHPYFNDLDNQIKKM
UniProt Q00535, whole entry: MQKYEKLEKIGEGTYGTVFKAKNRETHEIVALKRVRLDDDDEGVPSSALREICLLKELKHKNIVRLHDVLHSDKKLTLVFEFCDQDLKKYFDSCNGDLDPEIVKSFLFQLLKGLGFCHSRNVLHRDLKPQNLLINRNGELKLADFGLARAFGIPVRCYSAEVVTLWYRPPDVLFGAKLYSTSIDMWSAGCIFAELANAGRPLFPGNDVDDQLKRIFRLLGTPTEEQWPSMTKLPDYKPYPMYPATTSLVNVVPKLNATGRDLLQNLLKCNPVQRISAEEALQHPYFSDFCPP
UniProt P50750, whole entry: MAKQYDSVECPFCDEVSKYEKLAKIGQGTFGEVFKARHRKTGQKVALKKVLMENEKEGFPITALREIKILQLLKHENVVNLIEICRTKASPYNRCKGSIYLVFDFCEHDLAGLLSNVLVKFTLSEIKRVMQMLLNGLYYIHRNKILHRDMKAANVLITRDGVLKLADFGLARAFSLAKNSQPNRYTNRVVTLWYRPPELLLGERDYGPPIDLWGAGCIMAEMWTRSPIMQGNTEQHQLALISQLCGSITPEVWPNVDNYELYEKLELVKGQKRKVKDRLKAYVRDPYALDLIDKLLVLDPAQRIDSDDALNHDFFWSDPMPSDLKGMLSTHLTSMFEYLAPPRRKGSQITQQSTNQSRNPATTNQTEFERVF
UniProt Q9NYV4, whole entry: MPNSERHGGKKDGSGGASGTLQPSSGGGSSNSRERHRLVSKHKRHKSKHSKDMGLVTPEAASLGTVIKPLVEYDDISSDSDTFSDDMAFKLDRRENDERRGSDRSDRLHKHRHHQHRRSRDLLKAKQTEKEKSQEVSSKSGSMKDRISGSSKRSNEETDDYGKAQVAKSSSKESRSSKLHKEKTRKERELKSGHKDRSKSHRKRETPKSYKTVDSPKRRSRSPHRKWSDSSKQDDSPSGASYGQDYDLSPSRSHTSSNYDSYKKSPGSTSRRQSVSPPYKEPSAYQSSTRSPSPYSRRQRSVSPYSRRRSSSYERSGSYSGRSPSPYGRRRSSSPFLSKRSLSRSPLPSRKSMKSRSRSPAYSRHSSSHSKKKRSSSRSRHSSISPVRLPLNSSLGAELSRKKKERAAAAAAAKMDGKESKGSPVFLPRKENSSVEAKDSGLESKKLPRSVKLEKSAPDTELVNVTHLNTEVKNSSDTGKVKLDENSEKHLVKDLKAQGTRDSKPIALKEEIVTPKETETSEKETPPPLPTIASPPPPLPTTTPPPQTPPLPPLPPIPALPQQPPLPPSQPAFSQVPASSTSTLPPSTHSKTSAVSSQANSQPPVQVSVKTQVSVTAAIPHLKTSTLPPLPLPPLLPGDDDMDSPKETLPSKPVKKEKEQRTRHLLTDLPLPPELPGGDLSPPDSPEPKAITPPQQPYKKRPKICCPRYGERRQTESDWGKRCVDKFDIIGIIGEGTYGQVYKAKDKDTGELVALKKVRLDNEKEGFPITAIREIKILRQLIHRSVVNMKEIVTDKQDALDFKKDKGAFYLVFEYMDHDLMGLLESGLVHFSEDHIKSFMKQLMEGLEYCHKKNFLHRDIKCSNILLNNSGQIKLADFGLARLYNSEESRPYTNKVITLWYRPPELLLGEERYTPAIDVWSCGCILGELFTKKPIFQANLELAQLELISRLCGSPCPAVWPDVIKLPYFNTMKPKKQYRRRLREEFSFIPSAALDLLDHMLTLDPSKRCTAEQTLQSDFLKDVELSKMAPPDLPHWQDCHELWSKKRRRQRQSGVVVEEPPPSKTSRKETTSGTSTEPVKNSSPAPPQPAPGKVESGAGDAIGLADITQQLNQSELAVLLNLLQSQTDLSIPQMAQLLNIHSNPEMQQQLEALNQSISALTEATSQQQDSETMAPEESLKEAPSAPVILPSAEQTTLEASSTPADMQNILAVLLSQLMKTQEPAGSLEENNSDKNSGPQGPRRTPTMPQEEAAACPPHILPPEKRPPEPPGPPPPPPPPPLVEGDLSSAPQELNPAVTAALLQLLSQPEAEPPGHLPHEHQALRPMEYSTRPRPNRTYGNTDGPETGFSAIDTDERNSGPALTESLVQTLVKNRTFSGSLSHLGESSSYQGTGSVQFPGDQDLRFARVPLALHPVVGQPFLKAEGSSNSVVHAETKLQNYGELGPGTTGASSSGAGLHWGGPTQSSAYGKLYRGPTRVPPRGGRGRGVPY
UniProt P50613, whole entry: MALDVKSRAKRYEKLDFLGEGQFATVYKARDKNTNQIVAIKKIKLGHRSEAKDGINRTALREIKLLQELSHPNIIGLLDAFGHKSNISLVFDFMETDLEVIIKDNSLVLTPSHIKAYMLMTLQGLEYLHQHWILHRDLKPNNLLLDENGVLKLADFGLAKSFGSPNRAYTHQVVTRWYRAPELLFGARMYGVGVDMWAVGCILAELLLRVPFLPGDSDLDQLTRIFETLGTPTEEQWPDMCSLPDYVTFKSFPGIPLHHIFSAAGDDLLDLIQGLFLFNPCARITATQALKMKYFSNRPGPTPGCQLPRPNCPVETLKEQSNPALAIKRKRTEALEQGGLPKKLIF
UniProt Q00534, whole entry: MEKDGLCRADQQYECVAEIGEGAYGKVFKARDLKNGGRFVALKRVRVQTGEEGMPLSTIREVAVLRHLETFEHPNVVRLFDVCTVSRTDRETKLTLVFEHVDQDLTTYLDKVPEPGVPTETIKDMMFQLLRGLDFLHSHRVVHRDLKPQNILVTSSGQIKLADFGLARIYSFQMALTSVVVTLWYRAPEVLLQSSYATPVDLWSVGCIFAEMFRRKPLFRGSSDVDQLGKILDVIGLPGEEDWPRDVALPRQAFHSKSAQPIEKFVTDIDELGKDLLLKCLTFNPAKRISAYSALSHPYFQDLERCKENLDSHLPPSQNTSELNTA
UniProt Q5S007, whole entry: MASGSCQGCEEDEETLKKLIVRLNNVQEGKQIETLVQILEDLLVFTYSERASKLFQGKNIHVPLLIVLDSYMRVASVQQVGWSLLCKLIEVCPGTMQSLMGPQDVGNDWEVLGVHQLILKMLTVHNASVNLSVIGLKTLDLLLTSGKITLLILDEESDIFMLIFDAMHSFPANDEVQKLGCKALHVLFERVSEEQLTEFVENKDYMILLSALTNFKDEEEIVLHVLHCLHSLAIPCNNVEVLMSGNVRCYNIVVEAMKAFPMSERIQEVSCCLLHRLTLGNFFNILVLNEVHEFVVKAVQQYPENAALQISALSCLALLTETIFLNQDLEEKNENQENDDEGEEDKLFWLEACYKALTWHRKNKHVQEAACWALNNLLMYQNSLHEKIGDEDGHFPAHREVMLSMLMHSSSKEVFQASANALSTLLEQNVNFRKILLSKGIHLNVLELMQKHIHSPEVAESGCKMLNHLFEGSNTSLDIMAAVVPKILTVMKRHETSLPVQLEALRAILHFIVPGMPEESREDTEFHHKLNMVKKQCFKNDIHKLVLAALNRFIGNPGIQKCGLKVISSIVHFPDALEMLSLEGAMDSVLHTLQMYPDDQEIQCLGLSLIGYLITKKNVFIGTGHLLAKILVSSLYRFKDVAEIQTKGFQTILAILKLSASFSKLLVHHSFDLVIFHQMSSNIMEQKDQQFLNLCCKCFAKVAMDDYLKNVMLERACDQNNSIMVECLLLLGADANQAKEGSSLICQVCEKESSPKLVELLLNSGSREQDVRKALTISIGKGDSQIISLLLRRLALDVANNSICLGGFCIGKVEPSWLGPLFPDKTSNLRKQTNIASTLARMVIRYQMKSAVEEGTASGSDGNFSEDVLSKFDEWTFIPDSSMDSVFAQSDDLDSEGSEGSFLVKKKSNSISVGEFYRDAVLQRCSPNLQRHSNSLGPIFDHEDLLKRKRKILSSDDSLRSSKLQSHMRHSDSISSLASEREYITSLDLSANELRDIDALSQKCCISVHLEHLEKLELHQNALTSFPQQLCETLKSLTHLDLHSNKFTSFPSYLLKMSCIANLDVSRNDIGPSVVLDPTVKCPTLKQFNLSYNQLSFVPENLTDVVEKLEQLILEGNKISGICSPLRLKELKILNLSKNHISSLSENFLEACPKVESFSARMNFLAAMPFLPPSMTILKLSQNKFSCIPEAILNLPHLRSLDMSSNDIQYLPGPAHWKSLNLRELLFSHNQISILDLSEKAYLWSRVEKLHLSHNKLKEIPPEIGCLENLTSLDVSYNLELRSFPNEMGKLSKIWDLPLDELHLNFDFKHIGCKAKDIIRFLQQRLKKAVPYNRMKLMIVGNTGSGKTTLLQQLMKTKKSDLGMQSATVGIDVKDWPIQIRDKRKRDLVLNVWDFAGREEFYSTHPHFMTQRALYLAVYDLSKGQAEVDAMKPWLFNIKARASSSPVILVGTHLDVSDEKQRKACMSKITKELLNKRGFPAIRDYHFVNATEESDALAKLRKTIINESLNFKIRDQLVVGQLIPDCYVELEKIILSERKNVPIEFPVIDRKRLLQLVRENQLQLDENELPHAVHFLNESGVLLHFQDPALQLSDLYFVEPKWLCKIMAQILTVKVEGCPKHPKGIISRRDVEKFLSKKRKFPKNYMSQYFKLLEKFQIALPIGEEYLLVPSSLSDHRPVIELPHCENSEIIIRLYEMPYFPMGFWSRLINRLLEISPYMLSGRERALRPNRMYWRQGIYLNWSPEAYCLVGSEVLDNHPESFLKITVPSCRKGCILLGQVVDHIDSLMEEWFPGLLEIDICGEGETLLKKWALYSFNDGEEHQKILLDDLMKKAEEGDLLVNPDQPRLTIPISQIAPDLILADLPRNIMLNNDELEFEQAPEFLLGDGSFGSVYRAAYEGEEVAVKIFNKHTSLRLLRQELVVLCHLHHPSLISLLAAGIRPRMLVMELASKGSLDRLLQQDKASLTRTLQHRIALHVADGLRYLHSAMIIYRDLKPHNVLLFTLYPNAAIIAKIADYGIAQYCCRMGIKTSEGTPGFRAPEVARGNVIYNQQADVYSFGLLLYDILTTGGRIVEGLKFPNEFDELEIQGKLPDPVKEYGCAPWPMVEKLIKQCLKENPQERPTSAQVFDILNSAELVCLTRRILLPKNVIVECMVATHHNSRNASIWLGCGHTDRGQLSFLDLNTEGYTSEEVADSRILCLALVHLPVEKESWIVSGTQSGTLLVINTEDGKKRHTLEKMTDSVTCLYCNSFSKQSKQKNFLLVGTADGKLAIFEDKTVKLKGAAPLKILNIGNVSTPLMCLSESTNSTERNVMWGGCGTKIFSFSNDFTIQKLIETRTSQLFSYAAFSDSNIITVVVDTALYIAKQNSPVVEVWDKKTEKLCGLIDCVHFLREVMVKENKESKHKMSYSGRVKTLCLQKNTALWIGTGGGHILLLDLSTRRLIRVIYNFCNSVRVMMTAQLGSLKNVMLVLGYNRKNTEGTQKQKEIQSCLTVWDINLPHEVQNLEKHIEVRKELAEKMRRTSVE
UniProt Q07002, whole entry: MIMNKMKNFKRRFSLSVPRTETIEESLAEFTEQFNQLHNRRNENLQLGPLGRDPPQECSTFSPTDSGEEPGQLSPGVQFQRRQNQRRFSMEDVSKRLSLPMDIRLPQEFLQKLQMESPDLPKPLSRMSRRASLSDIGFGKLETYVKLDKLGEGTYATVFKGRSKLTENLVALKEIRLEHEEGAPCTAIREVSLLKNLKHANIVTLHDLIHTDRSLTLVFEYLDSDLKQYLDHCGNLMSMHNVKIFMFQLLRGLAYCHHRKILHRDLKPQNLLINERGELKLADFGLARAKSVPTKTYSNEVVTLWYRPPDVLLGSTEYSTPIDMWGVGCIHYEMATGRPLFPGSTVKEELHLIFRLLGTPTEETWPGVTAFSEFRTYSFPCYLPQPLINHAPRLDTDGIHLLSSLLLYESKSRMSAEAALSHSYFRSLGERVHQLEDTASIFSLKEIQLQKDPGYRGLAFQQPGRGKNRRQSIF
UniProt Q00526, whole entry: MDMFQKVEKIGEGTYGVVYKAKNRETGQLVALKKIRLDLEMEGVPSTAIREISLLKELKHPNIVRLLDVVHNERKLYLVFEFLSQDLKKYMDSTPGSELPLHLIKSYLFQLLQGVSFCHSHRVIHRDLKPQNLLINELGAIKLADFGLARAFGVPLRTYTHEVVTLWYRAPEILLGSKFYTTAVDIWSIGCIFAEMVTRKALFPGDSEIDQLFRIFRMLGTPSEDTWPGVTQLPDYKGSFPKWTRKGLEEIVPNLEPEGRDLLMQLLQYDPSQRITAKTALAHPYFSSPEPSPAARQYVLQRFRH

Experiments:
CDK1/CycE1 = CDK1/CycE1 (Homo sapiens, UniProt P06493); assay: CDK kinase selectivity (HTRF / ADP-Glo), CDK1/CycE1; conditions: 0.1 μM, duplicate wells
Procedure: (§1) The selectivity of the test compounds against CDK kinases was detected. The compounds were tested at a concentration of 0.1 μM, and the inhibition rate of CDK kinases by the compounds was detected in duplicate wells, mainly using HTRF and ADP-Glo detection methods.
(§2) The HTRF detection method was conducted as follows: 2-fold ATP/substrate solution and 2-fold kinase/metal ion solution were prepared respectively with a kinase reaction buffer, and 25 nL of diluted compound solution was transferred to a 384-well detection plate with Echo 655. After centrifugation, the plate was added with 2.5 μL of 2-fold kinase/metal ion solution and incubated at 25 °C for 10 minutes. After 10 minutes, 2.5 μL of 2-fold substrate/ATP solution was added to the 384-well detection plate and incubated at 25 °C for 60 minutes. 2 kinase detection reagent (XL665 and antibody) was prepared with detection buffer, and 5 μL of kinase detection reagent was added to the 384-well detection plate and incubated at 25 °C for 60 minutes. The fluorescence signals at 620 nm (Cryptate) and 665 nm (XL665) were read by the microplate reader, and the ratio and the inhibition rate of kinase activity by the compound were calculated.
(§3) The ADP-Glo detection method was conducted as follows. […] The chemiluminescent signal was detected with a microplate reader and the inhibition rate of kinase activity was calculated.

CDK5/p25NCK = CDK5/p25NCK (Homo sapiens, UniProt Q00535); assay: CDK kinase selectivity (HTRF / ADP-Glo), CDK5/p25NCK; conditions: 0.1 μM, duplicate wells
Procedure: as §1, §2, §3

JAK1 = JAK1 (Homo sapiens, UniProt P23458); assay: Kinase selectivity at 10 nM, JAK1
Procedure: (§4) The inhibitory effect of the compounds on the activity of CDK9 protein kinase was detected by the caliper mobility shift assay method. 250 nL of the compound at 100-fold final concentration was transferred to a target 384-well-plate with a dispenser Echo 550. A kinase solution at 2.5-fold final concentration was prepared using 1× kinase buffer. 10 μL of the kinase solution at 2.5-fold final concentration was added to the compound well and positive control well respectively. 10 μL of 1× kinase buffer was added to the negative control well. The 384-well plate was centrifuged at 1000 rpm for 30 seconds and incubated at room temperature for 10 minutes. A mixed solution of ATP and kinase substrate at 5/3-fold final concentration was prepared with 1× kinase buffer, and to the 384-well plate was added with 15 μL per well of the mixed solution of ATP and substrate at 5/3-fold final concentration to start the reaction. The plate was centrifuged at 1000 rpm for 30 seconds, shaken to mix evenly, and incubated at room temperature for a corresponding time. 30 μL of detection stopping solution was added to terminate the kinase reaction. The 384-well plate was centrifuged at 1000 rpm for 30 seconds and shaken to mix evenly. The conversion rate was read with Caliper EZ Reader. The percent conversion inhibition rate=(% positive control conversion rate mean−% sample conversion rate/(% positive control conversion rate mean−% negative control conversion rate mean). Among them: negative control wells represent the conversion rate readings of kinase buffer background wells; positive control wells represent the conversion rate readings of wells without inhibition by compound. With the log value of concentration as the x-axis and the percentage inhibition rate as the y-axis, a dose-response curve was fitted using the log (inhibitor) vs. response—Variable slope of the analysis software GraphPad Prism 5 to obtain the IC50 value of each compound on enzyme activity. Calculation formula: y=Bottom+(Top− Bottom)/(1+10^((Log IC50−x)×hillslope)), x: logarithm of inhibitor concentration; y: % inhibition rate.
(§5) According to the description of the above experiment on kinase activity inhibition, some compounds were tested for their selective inhibition rate against the kinases of CDK7, CDK9, JAK1, JAK2, JAK3, ITK, RET, TYK2, and LRRK2 at 10 nM.

CDK16/CyclinY = CDK16/CyclinY (Homo sapiens, UniProt Q00536); assay: CDK kinase selectivity (HTRF / ADP-Glo), CDK16/CyclinY; conditions: 0.1 μM, duplicate wells
Procedure: as §1, §2, §3

CDK2/CycE1 = CDK2/CycE1 (Homo sapiens, UniProt P24941); assay: CDK kinase selectivity (HTRF / ADP-Glo), CDK2/CycE1; conditions: 0.1 μM, duplicate wells
Procedure: as §1, §2, §3

CDK9 = CDK9 (Homo sapiens, UniProt P50750); assay: Inhibition on CDK9 kinase activity, caliper mobility shift assay; conditions: 10 nM
Procedure: Compounds were tested at a concentration of 10 nM with detection in duplicate wells, or tested at 10 concentrations starting from 10 μM with three-fold serial dilutions, with detection in duplicate wells.
as §4, §5

CDK12/CyclinK = CDK12/CyclinK (Homo sapiens, UniProt Q9NYV4); assay: CDK kinase selectivity (HTRF / ADP-Glo), CDK12/CyclinK; conditions: 0.1 μM, duplicate wells
Procedure: as §1, §2, §3

CDK4/cycD1 = CDK4/cycD1 (Homo sapiens, UniProt P11802); assay: CDK kinase selectivity (HTRF / ADP-Glo), CDK4/cycD1; conditions: 0.1 μM, duplicate wells
Procedure: as §1, §2, §3

CDK13/CyclinK = CDK13/CyclinK (Homo sapiens, UniProt Q14004); assay: CDK kinase selectivity (HTRF / ADP-Glo), CDK13/CyclinK; conditions: 0.1 μM, duplicate wells
Procedure: as §1, §2, §3

CDK5/p35NCK = CDK5/p35NCK (Homo sapiens, UniProt Q00535); assay: CDK kinase selectivity (HTRF / ADP-Glo), CDK5/p35NCK; conditions: 0.1 μM, duplicate wells
Procedure: as §1, §2, §3

CDK7 = CDK7 (Homo sapiens, UniProt P50613); assay: Kinase selectivity at 10 nM, CDK7
Procedure: as §4, with “A mixed solution of ATP and kinase substrate at 5/3-fold final concentration was prepared with 1× kinase buffer, and to the 384-well plate was added with 15 μL per well of the mixed solution of ATP and substrate at 5/3-fold final concentration to start the reaction. The plate was centrifuged at 1000 rpm for 30 seconds, shaken to mix evenly, and incubated at room temperature for a corresponding time. 30 μL of detection stopping solution was added to terminate the kinase reaction. The 384-well plate was centrifuged at 1000 rpm for 30 seconds and shaken to mix evenly.” left out, “Calculation formula: y=Bottom+(Top− Bottom)/(1+10^((Log IC50−x)×hillslope)), x: logarithm of inhibitor concentration; y: % inhibition rate.” left out

CDK6/CycD3 = CDK6/CycD3 (Homo sapiens, UniProt Q00534); assay: CDK kinase selectivity (HTRF / ADP-Glo), CDK6/CycD3; conditions: 0.1 μM, duplicate wells
Procedure: as §1, §2, §3

CDK2/CyCA2 = CDK2/CyCA2 (Homo sapiens, UniProt P24941); assay: CDK kinase selectivity (HTRF / ADP-Glo), CDK2/CyCA2; conditions: 0.1 μM, duplicate wells
Procedure: as §1, §2, §3

JAK2 = JAK2 (Homo sapiens, UniProt O60674); assay: Kinase selectivity at 10 nM, JAK2
Procedure: as §4, §5

JAK3 = JAK3 (Homo sapiens, UniProt P52333); assay: Kinase selectivity at 10 nM, JAK3
Procedure: as §4, with “A mixed solution of ATP and kinase substrate at 5/3-fold final concentration was prepared with 1× kinase buffer, and to the 384-well plate was added with 15 μL per well of the mixed solution of ATP and substrate at 5/3-fold final concentration to start the reaction. The plate was centrifuged at 1000 rpm for 30 seconds, shaken to mix evenly, and incubated at room temperature for a corresponding time. 30 μL of detection stopping solution was added to terminate the kinase reaction. The 384-well plate was centrifuged at 1000 rpm for 30 seconds and shaken to mix evenly.” left out, “Calculation formula: y=Bottom+(Top− Bottom)/(1+10^((Log IC50−x)×hillslope)), x: logarithm of inhibitor concentration; y: % inhibition rate.” left out

LRRK2 = LRRK2 (Homo sapiens, UniProt Q5S007); assay: Kinase selectivity at 10 nM, LRRK2
Procedure: as §4, with “rate. […]” for “rate.”

CDK6/CycD1 = CDK6/CycD1 (Homo sapiens, UniProt Q00534); assay: CDK kinase selectivity (HTRF / ADP-Glo), CDK6/CycD1; conditions: 0.1 μM, duplicate wells
Procedure: as §1, §2, §3

CDK9/CycT1 = CDK9/CycT1 (Homo sapiens, UniProt P50750); assay: CDK kinase selectivity (HTRF / ADP-Glo), CDK9/CycT1; conditions: 0.1 μM, duplicate wells
Procedure: as §1, §2, §3

CDK4/CycD3 = CDK4/CycD3 (Homo sapiens, UniProt P11802); assay: CDK kinase selectivity (HTRF / ADP-Glo), CDK4/CycD3; conditions: 0.1 μM, duplicate wells
Procedure: as §1, §2, §3

CDK7/CycH/MAT1 = CDK7/CycH/MAT1 (Homo sapiens, UniProt P50613); assay: CDK kinase selectivity (HTRF / ADP-Glo), CDK7/CycH/MAT1; conditions: 0.1 μM, duplicate wells
Procedure: as §1, §2, §3

CDK18/CyclinY = CDK18/CyclinY (Homo sapiens, UniProt Q07002); assay: CDK kinase selectivity (HTRF / ADP-Glo), CDK18/CyclinY; conditions: 0.1 μM, duplicate wells
Procedure: as §1, §2, §3

CDK19/CycC = CDK19/CycC (Homo sapiens, UniProt Q9BWU1); assay: CDK kinase selectivity (HTRF / ADP-Glo), CDK19/CycC; conditions: 0.1 μM, duplicate wells
Procedure: as §1, §2, §3

CDK1/CycB1 = CDK1/CycB1 (Homo sapiens, UniProt P06493); assay: CDK kinase selectivity (HTRF / ADP-Glo), CDK1/CycB1; conditions: 0.1 μM, duplicate wells
Procedure: as §1, §2, §3

ITK = ITK (Homo sapiens, UniProt Q08881); assay: Kinase selectivity at 10 nM, ITK
Procedure: as §4, with “A mixed solution of ATP and kinase substrate at 5/3-fold final concentration was prepared with 1× kinase buffer, and to the 384-well plate was added with 15 μL per well of the mixed solution of ATP and substrate at 5/3-fold final concentration to start the reaction. The plate was centrifuged at 1000 rpm for 30 seconds, shaken to mix evenly, and incubated at room temperature for a corresponding time. 30 μL of detection stopping solution was added to terminate the kinase reaction. The 384-well plate was centrifuged at 1000 rpm for 30 seconds and shaken to mix evenly.” left out, “Calculation formula: y=Bottom+(Top− Bottom)/(1+10^((Log IC50−x)×hillslope)), x: logarithm of inhibitor concentration; y: % inhibition rate.” left out

TYK2 = TYK2 (Homo sapiens, UniProt P29597); assay: Kinase selectivity at 10 nM, TYK2
Procedure: as §4, with “A mixed solution of ATP and kinase substrate at 5/3-fold final concentration was prepared with 1× kinase buffer, and to the 384-well plate was added with 15 μL per well of the mixed solution of ATP and substrate at 5/3-fold final concentration to start the reaction. The plate was centrifuged at 1000 rpm for 30 seconds, shaken to mix evenly, and incubated at room temperature for a corresponding time. 30 μL of detection stopping solution was added to terminate the kinase reaction. The 384-well plate was centrifuged at 1000 rpm for 30 seconds and shaken to mix evenly.” left out, “Calculation formula: y=Bottom+(Top− Bottom)/(1+10^((Log IC50−x)×hillslope)), x: logarithm of inhibitor concentration; y: % inhibition rate.” left out

CDK3/CycE1 = CDK3/CycE1 (Homo sapiens, UniProt Q00526); assay: CDK kinase selectivity (HTRF / ADP-Glo), CDK3/CycE1; conditions: 0.1 μM, duplicate wells
Procedure: as §1, §2, §3

CDK1/CycA2 = CDK1/CycA2 (Homo sapiens, UniProt P06493); assay: CDK kinase selectivity (HTRF / ADP-Glo), CDK1/CycA2; conditions: 0.1 μM, duplicate wells
Procedure: as §1, §2, §3

RET = RET (Homo sapiens, UniProt P07949); assay: Kinase selectivity at 10 nM, RET
Procedure: as §4, with “A mixed solution of ATP and kinase substrate at 5/3-fold final concentration was prepared with 1× kinase buffer, and to the 384-well plate was added with 15 μL per well of the mixed solution of ATP and substrate at 5/3-fold final concentration to start the reaction. The plate was centrifuged at 1000 rpm for 30 seconds, shaken to mix evenly, and incubated at room temperature for a corresponding time. 30 μL of detection stopping solution was added to terminate the kinase reaction. The 384-well plate was centrifuged at 1000 rpm for 30 seconds and shaken to mix evenly.” left out, “Calculation formula: y=Bottom+(Top− Bottom)/(1+10^((Log IC50−x)×hillslope)), x: logarithm of inhibitor concentration; y: % inhibition rate.” left out

- inhibition rate CDK1/CycE1 (CDK1/CycE1): D (<50%)
- inhibition rate CDK5/p25NCK (CDK5/p25NCK): C (50-75%)
- inhibition rate JAK1 (JAK1): C (<25%)
- inhibition rate CDK16/CyclinY (CDK16/CyclinY): C (50-75%)
- inhibition rate CDK2/CycE1 (CDK2/CycE1): C (50-75%)
- inhibition rate on CDK9 kinase activity (CDK9; duplicate wells (Table 1)): A (>50%)
- inhibition rate CDK9 (CDK9; selectivity panel (Table 3)): A (>50%)
- inhibition rate CDK12/CyclinK (CDK12/CyclinK): C (50-75%)
- inhibition rate CDK4/cycD1 (CDK4/cycD1): D (<50%)
- inhibition rate CDK13/CyclinK (CDK13/CyclinK): C (50-75%)
- inhibition rate CDK5/p35NCK (CDK5/p35NCK): D (<50%)
- inhibition rate CDK7 (CDK7): C (<25%)
- inhibition rate CDK6/CycD3 (CDK6/CycD3): D (<50%)
- inhibition rate CDK2/CyCA2 (CDK2/CyCA2): D (<50%)
- inhibition rate JAK2 (JAK2): B (25-49%)
- inhibition rate JAK3 (JAK3): C (<25%)
- inhibition rate LRRK2 (LRRK2): C (<25%)
- inhibition rate CDK6/CycD1 (CDK6/CycD1): D (<50%)
- inhibition rate CDK9/CycT1 (CDK9/CycT1): A (>95%)
- inhibition rate CDK4/CycD3 (CDK4/CycD3): C (50-75%)
- inhibition rate CDK7/CycH/MAT1 (CDK7/CycH/MAT1): C (50-75%)
- inhibition rate CDK18/CyclinY (CDK18/CyclinY): D (<50%)
- inhibition rate CDK19/CycC (CDK19/CycC): D (<50%)
- inhibition rate CDK1/CycB1 (CDK1/CycB1): D (<50%)
- inhibition rate ITK (ITK): C (<25%)
- inhibition rate TYK2 (TYK2): C (<25%)
- inhibition rate CDK3/CycE1 (CDK3/CycE1): C (50-75%)
- inhibition rate CDK1/CycA2 (CDK1/CycA2): D (<50%)
- inhibition rate RET (RET): C (<25%)
Structure (SMILES): Clc1cnc2nc1NCCCCCNCc1cccc(c1)N2
